The chains behind the UniProt entries cited, without tags or fusion partners.
UniProt O14649, whole entry: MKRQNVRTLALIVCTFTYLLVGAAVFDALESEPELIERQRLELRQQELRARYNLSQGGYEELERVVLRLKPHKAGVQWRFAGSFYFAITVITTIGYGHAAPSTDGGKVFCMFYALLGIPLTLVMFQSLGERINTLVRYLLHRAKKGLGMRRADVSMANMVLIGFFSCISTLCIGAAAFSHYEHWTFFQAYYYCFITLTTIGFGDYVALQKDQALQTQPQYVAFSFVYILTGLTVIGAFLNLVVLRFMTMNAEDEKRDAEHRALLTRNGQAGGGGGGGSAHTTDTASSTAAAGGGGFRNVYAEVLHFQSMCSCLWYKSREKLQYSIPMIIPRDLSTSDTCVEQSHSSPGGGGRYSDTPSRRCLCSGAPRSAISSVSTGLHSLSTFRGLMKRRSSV

The list shows a part of the results, in another mix than the full data. Some tests of the compounds listed are not included; inactive here does not mean inactive elsewhere. The source made the active and inactive calls.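 Rule for the calls: active = B-score under library mean minus 4 SD, starting fluorescence ratio at most library mean plus 5 SD; inactive = the rest.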
These molecules were tested against Potassium channel subfamily K member 3 (Homo sapiens) (UniProt O14649) (assay: human KCNK3 channel inhibitors, primary screen, CHO cells, FluxOR thallium flux, B-score (AID 602410)). Conditions: FluxOR fluorescence, at 10 µM.
With `CC(C)Oc1ccc(C(=O)NCC2(N(C)C)CCCCC2)cc1` the outcome was “inactive”.
`O=C(OCCN1CCCC1)C(O)(c1ccccc1)c1ccccc1` was tested, and the outcome was “inactive”.
With `CN(C)c1cccc(C(=O)NCC2(N(C)C)CCCCC2)c1` the outcome was “inactive”.
`COc1ccc(Br)c(C(=O)NCC2(N3CCCCC3)CCCCC2)c1` was tested, and the outcome was “inactive”.
In the case of `O=C(OC1CN2CCC1CC2)C(CO)(c1ccccc1)c1ccccc1` (stereo not given), the outcome is reported as “inactive”.
For `O=C(NCC1(N2CCCCC2)CCCCC1)c1cccc(Cl)c1`, the outcome was “inactive”.
`COc1cccc(C(=O)NCC2(N3CCCCC3)CCCCC2)c1` was tested, and the outcome was “inactive”.
In the case of `COc1ccc(Cl)cc1C(=O)NCC1(N(C)C)CCCCC1`, the outcome is reported as “inactive”.
With `COc1cc(C(=O)NCC2(N(C)C)CCCCC2)c([N+](=O)[O-])cc1OC` the outcome was “inactive”.
`CN(C)C1(CNC(=O)c2ccc(Br)cc2)CCCCC1` was tested, and the outcome was “inactive”.
In the case of `COc1ccc(C(=O)NCC2(N(C)C)CCCCC2)cc1`, the outcome is reported as “inactive”.
`CCN1CCCC(OC(=O)C2(O)c3ccccc3C=Cc3ccccc32)C1` (stereo not given) was tested, and the outcome was “inactive”.
For `Cc1cc(C(=O)NCC2(N3CCCCC3)CCCCC2)ccc1[N+](=O)[O-]`, the outcome was “inactive”.
With `O=C(NCC1(N2CCCCC2)CCCCC1)c1cccc(Br)c1` the outcome was “inactive”.
In the case of `C=CCN1CCN(CCOC(=O)C(O)(c2ccccc2)c2ccccc2)CC1`, the outcome is reported as “inactive”.
For `O=C(NCC1(N2CCCCC2)CCCCC1)c1cc(F)c(F)cc1Cl`, the outcome was “inactive”.
`Cc1ccccc1C(=O)NCC1(N2CCCCC2)CCCCC1` was tested, and the outcome was “inactive”.
`CN(C)c1ccc(C(=O)NCC2(N(C)C)CCCCC2)cc1` was tested, and the outcome was “inactive”.
For `CN(C)C1CCCC1OC(=O)C(O)(c1ccccc1)c1ccccc1` (stereo not given), the outcome was “inactive”.
In the case of `Cc1ccc(C(=O)NCC2(N3CCCCC3)CCCCC2)cc1`, the outcome is reported as “inactive”.
`CCN(CC)CC(C)C(C)OC(=O)C(O)(c1ccccc1)c1ccccc1` (stereo not given) was tested, and the outcome was “inactive”.
With `COc1cc(SC)ccc1C(=O)NCC1(N(C)C)CCCCC1` the outcome was “inactive”.
`CC(C)N1C(=O)CC2(CCN(CCOC(=O)C(O)(c3ccccc3)c3ccccc3)CC2)C1=O` was tested, and the outcome was “inactive”.
`CN1[C@@H]2CC[C@H]1CC(OC(=O)C(O)(c1ccccc1)c1ccccc1)C2` (stereo not given in full) was tested, and the outcome was “inactive”.
With `O=C(NCC1(N2CCCCC2)CCCCC1)c1cc([N+](=O)[O-])ccc1Cl` the outcome was “inactive”.
